GIV Gai3 FP = inhibitors of GIV GBA-motif binding to rat Galpha-i3; percent of control (FP), % (concentration not given with the values); AID 1224905; Galpha-i3/FITC-GIV peptide fluorescence polarization, 90 min; stronger effect = lower value; scaled: aluminum fluoride 0%, vehicle 100%; 210,000 compounds, 0.42% hits; P08753;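 active means replicate mean at 85% of control or lower, very high polarization wells dropped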;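 further: wells of about 15 µL received 100 nL stock; the first replicate is given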
HCMV NEC inh = inhibitors of HCMV UL50-UL53 nuclear egress complex interaction. hit rate 0.15% among 190,000. AID 1918969. HTRF UL50-UL53 interaction, normalized percent inhibition. inhibition, % (concentration not given with the values); in the data active = inhibition above about 27%, passing the limit was not always enough
GIV-Gai FP conf = confirmation of inhibitors of GIV binding to rat Galpha-i3; shares compounds with GIV Gai3 FP; FITC-GIV peptide binding to Galphai3, fluorescence polarization; stronger effect = lower value; fluorescence polarization, mP at 100 µM; hit rate 38% among 580; AID 1259350;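 active = inhibition score of 15 or more, meaning 100 minus mean polarization as percent of control over three replicates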
GIV-Gai AS conf = GIV-Galpha-i3 inhibition, AlphaScreen confirmation; shares compounds with GIV Gai3 FP; AlphaScreen Galphai3-GIV binding, purified proteins, 90 min; stronger effect = lower value; AlphaScreen counts at 100 µM; hit rate 39% among 580; AID 1259351;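 active = inhibition score at or above a set limit, where the score is 100 minus the three-replicate mean percent of control signal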
An asterisk follows results filed as active; x = no result given. Only some compounds are listed: those with a hit (about 0.43% of all), similar ones and a draw of the others.

SMILES	GIV Gai3 FP	HCMV NEC inh	others
Cn1c(=O)[nH]c2nncnc2c1=O	106.9	78.5*
O=C(CN1C(=O)CCC1=O)Nc1ccc(Cl)cc1C(=O)c1ccccc1	x	-13.2
C1CCC(OCC2CCCN3CCCCC23)CC1 (stereo unspecified)	x	2.5
O=C1NC(=O)C(=Cc2ccccc2OCCOc2ccc([N+](=O)[O-])cc2)C(=O)N1	103.6	-1.8
CC(C)(C)c1ccc(OCCOc2ccccc2C=C2C(=O)NC(=O)NC2=O)cc1	91.0	64.6*
Cc1ccc(N2Cc3ccccc3C2=N)cc1Cl	x	-5.5
Cn1c(CCCC(=O)O)nc2cc(N(CCCl)CCCl)ccc21	96.7	66.6*
CC1=C(O)C(=O)[C@@H]2O[C@@H]2C1=O	x	-15.6
COc1cc(C=C2C(=O)N(C)C(=O)N(C)C2=O)ccc1OS(=O)(=O)c1ccccc1	104.3	62.0*
CN1C(=O)C(=Cc2ccccc2OS(=O)(=O)c2ccccc2)C(=O)N(C)C1=O	105.6	-6.0
CCOC(=O)C1=C(N)Oc2n[nH]c(C)c2C12C(=O)N1c3c(cc(C)cc32)C(C)CC1(C)C (stereo unspecified)	105.9	-18.4
N#Cc1c(N)[n+]([O-])c2ccccc2[n+]1[O-]	-31.1*	-131.7
NCCc1nnc2ccccn12	x	1.2
CC(=O)OC1(c2ccccc2)CC(C)(C)N(C)CC1C (stereo unspecified)	98.5	x
O=Cc1cn(Cc2ccc(Cl)cc2)c2ccccc12	x	-8.1
O=C1NC(=O)C(=Cc2cn(Cc3ccccc3)c3ccccc23)C(=O)N1	-5.9*	x
O=C(NCc1ccccn1)c1cc2cccnc2n(Cc2ccccc2)c1=O	106.5	-28.9
CCOC(=O)C1C2NC(=S)NC1(C)Oc1ccccc12 (stereo unspecified)	99.7	-33.4
CCOC(=O)c1cc(CC)sc1/N=C/C1C(=O)NC(=S)NC1=O	-36.2*	x
Nc1cc2c(ncn2CCOCP(=O)(O)O)c(=O)[nH]1	93.4	56.4

Five successive compounds from above:
SMILES	GIV Gai3 FP	HCMV NEC inh	others
Cn1c(CCCC(=O)O)nc2cc(N(CCCl)CCCl)ccc21	96.7	66.6*
CC1=C(O)C(=O)[C@@H]2O[C@@H]2C1=O	x	-15.6
COc1cc(C=C2C(=O)N(C)C(=O)N(C)C2=O)ccc1OS(=O)(=O)c1ccccc1	104.3	62.0*
CN1C(=O)C(=Cc2ccccc2OS(=O)(=O)c2ccccc2)C(=O)N(C)C1=O	105.6	-6.0
CCOC(=O)C1=C(N)Oc2n[nH]c(C)c2C12C(=O)N1c3c(cc(C)cc32)C(C)CC1(C)C (stereo unspecified)	105.9	-18.4

Next part:
SMILES	GIV Gai3 FP	HCMV NEC inh	others
Cc1nn(Cc2ccccc2)cc1C(=O)O	106.0	-0.5
CN1/C(=C2\C=NN(C)P2(=S)N2CCCC2)C(C)(C)c2ccccc21 (stereo unspecified)	x	-22.1
Cc1ccc2c(c1)C1CN(C)CCC1N2 (stereo unspecified)	84.0*	12.9
CC(=O)N1c2ccc(C)cc2C2CN(C)CCC21 (stereo unspecified)	107.0	x
C[C@H]1O[C@@H](OC2CC[C@]3(C=O)[C@H]4CC[C@]5(C)[C@@H](C6=CC(=O)OC6)CC[C@]5(O)[C@@H]4CC[C@]3(O)C2)C[C@H](O)[C@@H]1O (stereo partly specified)	x	-4.8
C1=C(c2cccnc2)Nc2ncnn2C1c1cccs1 (stereo unspecified)	-74.0*	-73.3
O=c1c2ccccc2nc(CSc2ncnc3ccccc23)n1-c1ccccc1	99.3	-3.3
COc1ccc(CCN(C)CC2=CCC3CC2C3(C)C)cc1OC (stereo unspecified)	99.3	4.3
N#CC(C#N)=Cc1ccc(O)cc1	x	-13.1
CCN(CC)c1ccc(C=C(C#N)C#N)cc1	50.9*	-55.5
CCn1cc(C=C2C(=O)NC(=O)NC2=O)c2ccccc21	94.4	-67.5	GIV-Gai FP conf=18.6*;GIV-Gai AS conf=15779*
CCn1cc(C(=O)c2ccccc2)c2ccccc21	99.7	4.8
COc1cc(CN2CCN(C(=O)Cc3ccccc3)CC2)cc(OC)c1OC	97.8	-7.9
COc1cc(C(c2c(C)[nH]n(-c3ccccc3)c2=O)c2c(C)[nH]n(-c3ccccc3)c2=O)cc(OC)c1OC	79.0*	x	GIV-Gai FP conf=52.8*;GIV-Gai AS conf=19198*
COc1cc(C=C2C(=O)NC(=O)NC2=O)cc(Cl)c1OCCOc1ccccc1	104.1	12.8
CCOc1cc(C=C2C(=O)NC(=O)NC2=O)cc(Cl)c1O	72.2*	10.7	GIV-Gai FP conf=61.9;GIV-Gai AS conf=5092*
COc1ccc(N2C(=O)/C(=C/c3ccc(-c4cc(C(=O)O)ccc4Cl)o3)C(=O)NC2=S)cc1	107.8	-1.4
O=C1NC(=O)C(=Cc2ccc(-c3cc(C(=O)O)ccc3Cl)o2)C(=O)N1	59.4*	-18.9	GIV-Gai FP conf=59.8*;GIV-Gai AS conf=4991*
CCc1cc2c(s1)-n1c(C)nnc1CN=C2c1ccccc1Cl	x	-9.6
OC1(c2ccc(F)cc2)CCNC1 (stereo unspecified)	103.0	-2.9
CC1CCCN(C(=O)CN2C3CCC2CC(O)(c2cccnc2)C3)C1 (stereo unspecified)	103.5	-13.8
CN(N=O)c1ccc(O)c(O)c1	37.0*	101.6*	GIV-Gai FP conf=42.5*;GIV-Gai AS conf=3178*
CC[C@@]1(O)C(=O)OCc2c1cc1n(c2=O)Cc2cc3ccccc3nc2-1	97.6	-82.7
CC[C@@]1(O)C(=O)OCc2c1cc1n(c2=O)Cc2cc3c(O)cccc3nc2-1	76.6*	-78.4	GIV-Gai FP conf=61*;GIV-Gai AS conf=15350
CCC(C)n1[nH]c(=O)c2c1NC(=O)CSC2c1ccc2c(c1)OCO2 (stereo unspecified)	103.0	-4.5
N#Cc1cc([N+](=O)[O-])ccc1NC(=O)c1cccn(Cc2cccc(F)c2)c1=O	106.1	x
CN1C(=O)C(O)N=C(c2ccccc2)c2cc(Br)ccc21 (stereo unspecified)	105.4	x
COc1ccccc1N1C(=O)NC(=O)/C(=C\C=C\c2ccco2)C1=O	104.2	x
C=CCN1C(=O)NC(=O)/C(=C/c2ccco2)C1=O	118.5	x
O=C1NC(=O)N(Cc2ccco2)C(=O)/C1=C\c1ccco1	61.3*	13.7	GIV-Gai FP conf=46.4*;GIV-Gai AS conf=1412*
C=CCN1C(=O)/C(=C/c2ccco2)C(=O)NC1=S	45.8*	-2.3	GIV-Gai FP conf=52.1*;GIV-Gai AS conf=936*
CN(N)P(=O)(c1ccccc1)c1ccccc1	x	4.6
CC(C)(C)c1ccc(C(=O)Nc2ccc(Cl)cc2C(=O)c2ccccc2)cc1	108.2	-23.9
NCCc1cc(O)c(O)cc1O	x	-21.8
NC(Cc1cc(O)c(O)cc1O)C(=O)O (stereo unspecified)	71.0*	76.3*	GIV-Gai FP conf=33.9*;GIV-Gai AS conf=2389*
c1cncc(C2N3CCCN2CC3)c1 (stereo unspecified)	99.8	-10.2
C#CCN(C)C(C)Cc1ccccc1 (stereo unspecified)	96.8	-21.7
CN1C(=O)/C(=C/c2ccc(I)o2)C(=O)NC1=S	46.4*	-42.5	GIV-Gai FP conf=56.3*;GIV-Gai AS conf=812*
O=C1NC(=S)N(c2ccc(Br)cc2)C(=O)/C1=C\c1ccc(-c2ccccc2C(=O)O)o1	111.6	-1.7
CN1CCc2cc3c(cc2C1O)OCO3 (stereo unspecified)	x	-63.7

Pulled by compound from the entries so far (2):
SMILES	GIV Gai3 FP	HCMV NEC inh	others
CC[C@@]1(O)C(=O)OCc2c1cc1n(c2=O)Cc2cc3ccccc3nc2-1	97.6	-82.7
Cn1c(CCCC(=O)O)nc2cc(N(CCCl)CCCl)ccc21	96.7	66.6*

Compound activity as filed in PubChem BioAssay.
